This is an account of results in publication PMC5460201, “Bacterial protease uses distinct thermodynamic signatures for substrate recognition” (Scientific Reports, 2017).

By UniProt entry, the sequences of proteins in these tests, tags left out. Residues count along the entry.
UniProt F8WQK8, 22-717 S652A: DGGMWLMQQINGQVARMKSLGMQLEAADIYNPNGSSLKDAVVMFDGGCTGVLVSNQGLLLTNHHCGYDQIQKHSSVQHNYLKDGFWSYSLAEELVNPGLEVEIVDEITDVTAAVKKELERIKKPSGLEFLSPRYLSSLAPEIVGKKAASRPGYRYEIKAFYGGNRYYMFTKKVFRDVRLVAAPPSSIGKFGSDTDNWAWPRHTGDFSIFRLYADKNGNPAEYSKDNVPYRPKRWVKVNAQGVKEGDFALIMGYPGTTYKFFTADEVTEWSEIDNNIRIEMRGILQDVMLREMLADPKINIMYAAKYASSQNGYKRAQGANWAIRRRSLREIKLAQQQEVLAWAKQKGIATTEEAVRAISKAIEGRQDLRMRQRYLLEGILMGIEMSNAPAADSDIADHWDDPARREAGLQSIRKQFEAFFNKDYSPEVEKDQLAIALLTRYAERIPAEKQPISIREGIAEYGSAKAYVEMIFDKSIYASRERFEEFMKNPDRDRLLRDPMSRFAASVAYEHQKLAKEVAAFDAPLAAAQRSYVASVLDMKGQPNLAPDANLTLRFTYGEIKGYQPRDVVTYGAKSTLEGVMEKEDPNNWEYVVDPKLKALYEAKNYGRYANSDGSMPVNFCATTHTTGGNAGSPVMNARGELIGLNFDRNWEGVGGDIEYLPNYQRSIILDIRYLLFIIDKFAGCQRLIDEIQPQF

For this test, the target named is T1, PeDPP11 (PeDPP11_22-717 S652A) (Porphyromonas endodontalis, UniProt F8WQK8, S652A).
T1 construct: genes encoding for C-terminal 6xHis-tagged PeDPP11_22-717 S652A and PgDPP11_22-720 S655A in the pET-22b(+) vector; 6xHis (C); made in house; host or cells: E. coli BL21(DE3)pLysS
The experiment in a line: Isothermal titration calorimetry (ITC) of peptide binding to PeDPP11. The method, then:
All experiments were carried out in 10 mM Hepes-NaOH pH 7.4, 100 mM NaCl. Both the enzymes and the peptides were dissolved in the same buffer. The bindings were analysed with a MicroCal^TM iTC200 microcalorimeter (GE Healthcare, Life Sciences) equilibrated at the respective temperature. […] Every injection was carried out over a period of 4 s with a spacing of 110 s between the injections. […] These corrected values were plotted against the ratio peptide vs. protein concentration in the cell to generate the binding isotherm. Nonlinear least-squares fitting using Origin version 7.0 (Microcal) was used to obtain the association constants (K a), heats of binding (ΔH) and stoichiometries. […] The reported values are averages of at least two independent measurements.
In general terms: In ITC the heat of successive injections is recorded.

The structures appear in SMILES notation. Like-named read-outs stand apart in the source and are kept apart here.

As usually defined, the Kd is the equilibrium constant for the complex coming apart. Read a low Kd as tighter binding. `CC(C)C[C@H](N)C(=O)N[C@@H](CC(=O)O)C(=O)N[C@H](C(=O)N[C@@H](Cc1c[nH]c2ccccc12)C(=O)O)C(C)C` [LDVW, Leu-Asp-Val-Trp] displayed a Kd of 2.8 ± 0.3 µM. Moreover, for the setting “ITC, 5 °C (278 K), 10 mM Hepes-NaOH pH 7.4, 100 mM NaCl, averages of at least two independent measurements”, the Kd is 17.3 ± 2.2 µM. Further, the Kd (ITC, 20 °C (293 K), 10 mM Hepes-NaOH pH 7.4, 100 mM NaCl, averages of at least two independent measurements) was 5.6 ± 0.4 µM.

With `CC(C)C[C@H](N)C(=O)N[C@@H](CC(=O)O)C(=O)O` [LD], binding was characterised by a dissociation constant (Kd) of 1.8 ± 0.2 µM.
